Test results: ChEMBL document CHEMBL1155465, “"Viologen" dendrimers as antiviral agents: the effect of charge number and distance” (J Med Chem, 2010)

Test system: MT4
Assay: Cytotoxicity against human MT4 cells after 5 days by MTT assay
Type: cell-based
Details: mt4, 120 h
How it was run: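 MT-4 cells in RPMI 1640 with 10% heat-inactivated FCS, 2 mM L-glutamine, 0.1% bicarbonate and gentamicin, seeded at 6 × 10⁵ cells/mL final with virus or mock infection. Viability read by MTT after 5 days at 540 and 690 nm, using the median OD of three wells. CC50 is 50% loss of mock-infected OD540. EC50 is 50% inhibition of virus-induced CPE. SI = CC50/EC50. Mean ± SD of ≥2 experiments.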

## O=[N+]([O-])c1ccc(-[n+]2ccc(-c3cc[n+](-c4ccc([N+](=O)[O-])cc4[N+](=O)[O-])cc3)cc2)c([N+](=O)[O-])c1
  CC50: 107 µM
